Source: ChEMBL document CHEMBL1138707, “Bridgehead modification of trihalocycloheptabenzopyridine leads to a potent farnesyl protein transferase inhibitor with improved oral metabolic stability” (Bioorg Med Chem Lett, 2004)

Molecular target: Protein farnesyltransferase (Homo sapiens, UniProt P49354+P49356)

Q: `NC(=O)N1CCC(CC(=O)N2CCC([C@H]3c4ncc(Br)cc4CCc4cc(Cl)cc(Br)c43)CC2)CC1` [LONAFARNIB] was tested. Which IC50 did it give?
A: 500 µM
